# According to patent publication US20240360179A1, “STAPLED PEPTIDES AND METHODS THEREOF” (FOG PHARMACEUTICALS, INC., priority 2021, published 2024):
# Sequences of proteins named here, by UniProt entry; tags and fusion partners are left off.
# UniProt P35222, whole entry: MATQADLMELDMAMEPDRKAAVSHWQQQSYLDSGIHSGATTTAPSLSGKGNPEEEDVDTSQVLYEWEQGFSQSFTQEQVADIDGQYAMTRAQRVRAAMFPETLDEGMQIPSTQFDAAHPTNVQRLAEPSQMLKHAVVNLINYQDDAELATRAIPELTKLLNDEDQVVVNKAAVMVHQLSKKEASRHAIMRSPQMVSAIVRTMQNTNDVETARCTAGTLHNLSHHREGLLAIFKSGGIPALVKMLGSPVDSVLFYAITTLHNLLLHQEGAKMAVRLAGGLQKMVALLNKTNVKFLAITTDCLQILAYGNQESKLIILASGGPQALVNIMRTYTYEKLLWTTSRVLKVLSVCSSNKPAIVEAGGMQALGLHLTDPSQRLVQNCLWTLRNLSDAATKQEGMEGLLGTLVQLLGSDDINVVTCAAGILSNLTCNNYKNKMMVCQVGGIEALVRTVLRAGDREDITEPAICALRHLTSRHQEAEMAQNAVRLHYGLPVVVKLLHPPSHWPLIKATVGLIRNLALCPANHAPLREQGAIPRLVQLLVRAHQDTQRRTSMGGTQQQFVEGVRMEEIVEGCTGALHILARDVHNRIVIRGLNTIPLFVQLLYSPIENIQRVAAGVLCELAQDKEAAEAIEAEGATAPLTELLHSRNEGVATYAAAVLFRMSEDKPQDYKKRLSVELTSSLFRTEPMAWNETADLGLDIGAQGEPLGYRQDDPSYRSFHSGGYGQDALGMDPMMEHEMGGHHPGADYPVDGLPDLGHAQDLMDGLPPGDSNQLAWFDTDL
# Target: T1, full-length B-Catenin (Uniprot ID P35222) (Homo sapiens, UniProt P35222)
# T1 construct: 10 nM full-length B-Catenin (Uniprot ID P35222)
# Type: binding
# Conditions: competition fluorescence polarization; read-out: beta-Catenin FP IC50
row,Substance,IC50
1,1Imidac-PL3-Asp-Npg-B5-Asp-3COOHF-Aib-Ala-Phe-Lys*3-PyrS2-3Thi-BztA-GlnR*3-Ala-NH2 [I-1062],< 50 nM
2,1PydoneAc-PL3-Asp-Npg-B5-Asp-3COOHF-Aib-Ala-Phe-Lys*3-PyrS2-3Thi-BztA-GlnR*3-Ala-NH2 [I-1074],< 50 nM
3,1Pyrazole Ac-PL3-Asp-Npg-B5-Asp-3COOHF-Aib-Ala-Phe-Lys*3-PyrS2-3Thi-BztA-GlnR*3-Ala-NH2 [I-1069],< 50 nM
4,2F2PyAc-PL3-Asp-Npg-B5-Asp-3COOHF-Aib-Ala-Phe-Lys*3-PyrS2-3Thi-BztA-GlnR*3-Ala-NH2 [I-1063],< 50 nM
5,2IAPAc-PL3-Asp-Npg-B5-Asp-3COOHF-Aib-Ala-Phe-Lys*3-PyrS2-3Thi-BztA-GlnR*3-Ala-NH2 [I-1064],< 50 nM
6,2PyBu-PL3-Asp-DipA-B5-Asp-3COOHF-CyLeu-Ala-Phe-Lys*3-PyrS2-3Thi-34ClF-GlnR*3-NH2 [I-1721],< 50 nM
7,2PyBu-PL3-Glu-Npg-B5-Glu-3COOHF-Aib-Ala-Phe-Lys*3-PyrS2-3Thi-BztA-GlnR*3-Ala-NH2 [I-1025],> 1000 nM
8,2PyCypCO-PL3-Asp-DipA-B5-Asp-3COOHF-CyLeu-Ala-Phe-Lys*3-PyrS2-3Thi-34ClF-GlnR*3-NH2 [I-1720],< 50 nM
9,2PyzCO-PL3-Asn-DipA-B5-Asp-3COOHF-CyLeu-Ala-Phe-Lys*3-PyrS2-3Thi-34ClF-GlnR*3-NH2 [I-1734],< 50 nM
10,2PyzCO-PL3-Asp-DipA-B5-Asp-3COOHF-CyLeu-Ala-Phe-Lys*3-PyrS2-3Thi-34ClF-GlnR*3-NH2 [I-1722],< 50 nM
11,3PyPrpc-PL3-Asp-Npg-B5-Asp-3COOHF-Aib-Ala-Phe-Lys*3-PyrS2-3Thi-BztA-GlnR*3-Ala-NH2 [I-1072],< 50 nM
12,3PydCO-PL3-Asp-Npg-B5-Asp-3COOHF-Aib-Ala-Phe-Lys*3-PyrS2-3Thi-BztA-GlnR*3-Ala-NH2 [I-907],< 50 nM
13,4PymCO-PL3-Asp-Npg-B5-Asp-3COOHF-Aib-Ala-Phe-Lys*3-PyrS2-3Thi-BztA-GlnR*3-Ala-NH2 [I-911],< 50 nM
14,4THPCO-PL3-Asp-Ile-B5-Asp-3COOHF-Aib-Ala-Phe-Lys*3-PyrS2-3Thi-34ClF-GlnR*3-NH2 [I-1592],< 50 nM
15,4THPCO-PL3-Asp-Npg-B5-Asp-3COOHF-Aib-Ala-Phe-Lys*3-PyrS2-Phe-34ClF-GlnR*3-NH2 [I-1570],< 50 nM
16,5PymAc-PL3-Asp-DipA-B5-Asp-3COOHF-CyLeu-Ala-Phe-Lys*3-PyrS2-3Thi-34ClF-GlnR*3-NH2 [I-1719],< 50 nM
17,5PymAc-PL3-Asp-Npg-B5-Asp-3COOHF-Aib-Ala-Phe-Lys*3-PyrS2-3Thi-BztA-GlnR*3-Ala-NH2 [I-1073],< 50 nM
18,5PymCO-PL3-Asp-Npg-B5-Asp-3COOHF-Aib-Ala-Phe-Lys*3-PyrS2-3Thi-BztA-GlnR*3-Ala-NH2 [I-910],< 50 nM
19,5hexenyl-MePro-Asp-B5-Ala-Asp-3COOHF-Ala-Ala-Phe-PyrS2-Lys*3-3Thi-BztA-Ala-GlnR*3-NH2 [I-992],> 1000 nM
20,5hexenyl-MePro-Asp-S3-R5-Asp-3COOHF-Aib-Ala-Phe-Lys*3-PyrS2-3Thi-BztA-GlnR*3-Ala-NH2 [I-1022],50 to 200 nM
21,6QuiAc-PL3-Asp-Npg-B5-Asp-3COOHF-Aib-Ala-Phe-Lys*3-PyrS2-3Thi-BztA-GlnR*3-Ala-NH2 [I-1066],< 50 nM
22,8IAP-PL3-Asp-Npg-B5-Asp-3COOHF-Aib-Ala-Phe-Lys*3-PyrS2-3Thi-BztA-GlnR*3-Ala-NH2 [I-906],< 50 nM
23,8QuiSO2-PL3-Asp-Npg-B5-Asp-3COOHF-Aib-Ala-Phe-Lys*3-PyrS2-3Thi-BztA-GlnR*3-Ala-NH2 [I-1085],< 50 nM
24,123TriAc-PL3-Asp-Npg-B5-Asp-3COOHF-Aib-Ala-Phe-Lys*3-PyrS2-3Thi-BztA-GlnR*3-Ala-NH2 [I-1068],< 50 nM
25,124TriAc-PL3-Asn-DipA-B5-Asp-3COOHF-CyLeu-Ala-Phe-Lys*3-PyrS2-3Thi-34ClF-GlnR*3-NH2 [I-1731],< 50 nM
